Experimental data as given in ChEMBL document CHEMBL1127578, “Phospholipase C inhibitors: a new class of cytotoxic agents” (J Med Chem, 1994).

Experiments:
[1] = Inhibitory activity against phospholipase C isolated from human melanoma; IN-Inactive
[2] = pKa value was determined; type: physicochemical

Compound	IC50 [1]	pKa [2]
O=[N+]([O-])C1=Cc2ccccc2OC1Nc1cc([N+](=O)[O-])cc([N+](=O)[O-])c1 (centres undefined)	Not Active	-4.53
O=[N+]([O-])C1=Cc2ccccc2OC1Nc1ccc([N+](=O)[O-])cc1[N+](=O)[O-] (centres undefined)	Not Active	0
